The record followed here is article PMC7084495, “Discovery of 1-Pyrimidinyl-2-Aryl-4,6-Dihydropyrrolo [3,4-d]Imidazole-5(1H)-Carboxamide as a Novel JNK Inhibitor” (International Journal of Molecular Sciences, 2020).

Chains of the proteins cited; added tags and fusions are not shown. Lines headed by an entry give the natural chain unless they say otherwise; changes in a name come on top.
UniProt P53779: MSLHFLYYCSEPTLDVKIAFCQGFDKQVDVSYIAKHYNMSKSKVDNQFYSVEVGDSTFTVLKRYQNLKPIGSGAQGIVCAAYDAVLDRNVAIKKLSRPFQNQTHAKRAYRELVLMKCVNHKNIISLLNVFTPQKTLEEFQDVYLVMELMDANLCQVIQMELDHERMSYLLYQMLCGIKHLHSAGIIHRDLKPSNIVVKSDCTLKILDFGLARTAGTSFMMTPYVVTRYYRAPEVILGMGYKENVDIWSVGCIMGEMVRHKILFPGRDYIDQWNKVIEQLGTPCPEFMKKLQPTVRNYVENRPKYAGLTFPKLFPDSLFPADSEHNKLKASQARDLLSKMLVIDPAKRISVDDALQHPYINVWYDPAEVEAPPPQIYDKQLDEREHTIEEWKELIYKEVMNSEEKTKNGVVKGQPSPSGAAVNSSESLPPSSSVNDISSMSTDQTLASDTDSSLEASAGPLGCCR
UniProt P49841: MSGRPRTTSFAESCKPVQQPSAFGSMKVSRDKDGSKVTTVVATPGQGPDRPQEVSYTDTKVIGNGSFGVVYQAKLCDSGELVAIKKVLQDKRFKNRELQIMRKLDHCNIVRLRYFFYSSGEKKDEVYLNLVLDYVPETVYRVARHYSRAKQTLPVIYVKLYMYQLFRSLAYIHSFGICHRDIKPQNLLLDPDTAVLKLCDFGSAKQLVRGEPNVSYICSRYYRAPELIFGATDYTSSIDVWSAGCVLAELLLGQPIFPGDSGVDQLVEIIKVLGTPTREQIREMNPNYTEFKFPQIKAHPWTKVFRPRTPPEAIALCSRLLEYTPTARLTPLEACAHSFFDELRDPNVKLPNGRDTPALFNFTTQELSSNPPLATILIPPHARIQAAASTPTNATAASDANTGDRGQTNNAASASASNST
UniProt Q9Y572: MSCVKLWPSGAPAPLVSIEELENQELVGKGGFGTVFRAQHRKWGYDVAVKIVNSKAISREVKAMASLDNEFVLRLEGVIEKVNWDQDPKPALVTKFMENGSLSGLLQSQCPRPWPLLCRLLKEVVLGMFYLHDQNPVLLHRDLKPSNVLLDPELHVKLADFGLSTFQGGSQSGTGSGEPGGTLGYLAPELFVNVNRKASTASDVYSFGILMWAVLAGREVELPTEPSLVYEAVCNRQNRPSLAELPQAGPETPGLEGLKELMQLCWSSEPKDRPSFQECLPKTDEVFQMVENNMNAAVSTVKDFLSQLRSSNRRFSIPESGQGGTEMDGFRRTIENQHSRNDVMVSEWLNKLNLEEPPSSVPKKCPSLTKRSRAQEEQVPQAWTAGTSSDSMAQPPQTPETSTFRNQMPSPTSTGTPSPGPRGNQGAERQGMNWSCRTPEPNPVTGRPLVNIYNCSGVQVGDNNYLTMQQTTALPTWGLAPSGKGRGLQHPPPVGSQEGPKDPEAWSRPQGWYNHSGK

The target in one assay is T1, JNK3 (h) (Homo sapiens, UniProt P53779).
T1 construct: purchased Reaction Biology Corp. (Kinase HotSpot service)
In words: JNK3 kinase inhibition, Reaction Biology Kinase HotSpot radiometric assay. It is filed as biochemical. An excerpt:
(specific activity approx. 500 cpm/pmol, concentration as required).

For another assay, the target named is JNK2 (Homo sapiens, UniProt P45984). Description: biochemical. How it is done:
(§1) (specific activity approx. 500 cpm/pmol, concentration as required). […] After incubation for 40 min at room temperature, the reaction was stopped by the addition of 5 μL of a 3% phosphoric acid solution.

In the next assay the target is GSK3β (Homo sapiens, UniProt P49841). Description: biochemical. Here is the method: as §1
A further assay deals with RIPK3 (Homo sapiens, UniProt Q9Y572). Description: biochemical. Particulars: read-out: enzymatic inhibition of RIPK3 in kinase panel screening. Here is the method:
as §1

[1] abbreviates: enzymatic activity, ATP 10 μM, read-out: JNK3 IC50.

Where two headings read alike, the source gives them in different places.

As usually defined, the IC50 is the concentration that gives 50% inhibition. For orientation: inhibition means the drop in the measured response relative to a control, in per cent.

With `NC(=O)N1Cc2nc(-c3ccc(Cl)c(Cl)c3)n(-c3ccnc(N[C@H]4CCCN(C(=O)C5CCC5)C4)n3)c2C1` [Compound 20a, (S)-1-(2-((1-(Cyclobutanecarbonyl)Piperidin-3-yl)Amino)Pyrimidin-4-yl)-2-(3,4-Dichlorophenyl)-4,6-Dihydropyrrolo[3,4-d]Imidazole-5(1H)-Carboxamide], the IC50 on JNK3 (h) (setting [1]) was 29.7 nM.
On the same count and under the same terms, the result for `NC(=O)N1Cc2nc(-c3ccc4c(c3)CCO4)n(-c3ccnc(N[C@H]4CCN(C(=O)C5CC5)C4)n3)c2C1` [Compound 19d, (S)-1-(2-((1-(Cyclopropanecarbonyl)Pyrrolidin-3-yl)Amino)Pyrimidin-4-yl)-2-(2,3-Dihydrobenzofuran-5-yl)-4,6-Dihydropyrrolo[3,4-d]Imidazole-5(1H)-Carboxamide] reads 529 nM.
On JNK3 (h), `NC(=O)N1Cc2nc(-c3ccc4c(c3)OCO4)n(-c3ccnc(N[C@H]4CCN(C(=O)C5CC5)C4)n3)c2C1` [Compound 19c, (S)-2-(Benzo[d][1,3]Dioxol-5-yl)-1-(2-((1-(Cyclopropanecarbonyl)Pyrrolidin-3-yl)Amino)Pyrimidin-4-yl)-4,6-Dihydropyrrolo[3,4-d]Imidazole-5(1H)-Carboxamide] yielded an IC50 of 744 nM.
Turning to `NC(=O)N1Cc2nc(-c3ccc(Cl)c(Cl)c3)n(-c3ccnc(N[C@H]4CCN(C(=O)C5CC5)C4)n3)c2C1` [Compound 19a, (S)-1-(2-((1-(Cyclopropanecarbonyl)Pyrrolidin-3-yl)Amino)Pyrimidin-4-yl)-2-(3,4-Dichlorophenyl)-4,6-Dihydropyrrolo[3,4-d]Imidazole-5(1H)-Carboxamide], the IC50 on JNK3 (h) worked out at 113 nM.
Still for that read-out and setting: next, `NC(=O)N1Cc2nc(-c3ccc4c(c3)OCO4)n(-c3ccnc(N[C@H]4CCCN(C(=O)C5CC5)C4)n3)c2C1` [Compound 17c, (S)-2-(Benzo[d][1,3]Dioxol-5-yl)-1-(2-((1-(Cyclopropanecarbonyl)Piperidin-3-yl)Amino)Pyrimidin-4-yl)-4,6-Dihydropyrrolo[3,4-d]Imidazole-5(1H)-Carboxamide]: 131 nM.
`NC(=O)N1Cc2nc(-c3ccc4c(c3)OCO4)n(-c3ccnc(N[C@@H]4CCN(C(=O)C5CC5)C4)n3)c2C1` [Compound 18c, (R)-2-(Benzo[d][1,3]Dioxol-5-yl)-1-(2-((1-(Cyclopropanecarbonyl)Pyrrolidin-3-yl)Amino)Pyrimidin-4-yl)-4,6-Dihydropyrrolo[3,4-d]Imidazole-5(1H)-Carboxamide] showed an IC50 on JNK3 (h) of 37.3 nM.
In the case of `NC(=O)N1Cc2nc(-c3ccc4c(c3)CCO4)n(-c3ccnc(N[C@@H]4CCN(C(=O)C5CC5)C4)n3)c2C1` [Compound 18d, (R)-1-(2-((1-(Cyclopropanecarbonyl)Pyrrolidin-3-yl)Amino)Pyrimidin-4-yl)-2-(2,3-Dihydrobenzofuran-5-yl)-4,6-Dihydropyrrolo[3,4-d]Imidazole-5(1H)-Carboxamide], the IC50 on JNK3 (h) (setting [1]) amounted to 16.7 nM.
For `NC(=O)N1Cc2nc(-c3ccc4ccccc4c3)n(-c3ccnc(N[C@@H]4CCN(C(=O)C5CC5)C4)n3)c2C1` [Compound 18b, (R)-1-(2-((1-(Cyclopropanecarbonyl)Pyrrolidin-3-yl)Amino)Pyrimidin-4-yl)-2-(Naphthalen-2-yl)-4,6-Dihydropyrrolo[3,4-d]Imidazole-5(1H)-Carboxamide], the IC50 on JNK3 (h) (setting [1]) was determined as 4.52 nM.
Regarding `NC(=O)N1Cc2nc(-c3ccc(Cl)c(Cl)c3)n(-c3ccnc(N[C@H]4CCCN(C(=O)C5CCCC5)C4)n3)c2C1` [Compound 21a, (S)-1-(2-((1-(Cyclopentanecarbonyl)Piperidin-3-yl)Amino)Pyrimidin-4-yl)-2-(3,4-Dichlorophenyl)-4,6-Dihydropyrrolo[3,4-d]Imidazole-5(1H)-Carboxamide], at JNK3 (h) (setting [1]), the IC50 worked out at 24.8 nM.
On to `NC(=O)N1Cc2nc(-c3ccc4c(c3)CCO4)n(-c3ccnc(N[C@H]4CCCN(C(=O)C5CC5)C4)n3)c2C1` [Compound 17d, (S)-1-(2-((1-(Cyclopropanecarbonyl)Piperidin-3-yl)Amino)Pyrimidin-4-yl)-2-(2,3-Dihydrobenzofuran-5-yl)-4,6-Dihydropyrrolo[3,4-d]Imidazole-5(1H)-Carboxamide], for which inhibition on JNK3 (h) was half-maximal at 41.2 nM (IC50).
As to `NC(=O)N1Cc2nc(-c3ccc(Cl)c(Cl)c3)n(-c3ccnc(N[C@@H]4CCN(C(=O)C5CC5)C4)n3)c2C1` [Compound 18a, (R)-1-(2-((1-(Cyclopropanecarbonyl)Pyrrolidin-3-yl)Amino)Pyrimidin-4-yl)-2-(3,4-Dichlorophenyl)-4,6-Dihydropyrrolo[3,4-d]Imidazole-5(1H)-Carboxamide], the IC50 on JNK3 (h) came to 2.69 nM. Also, the “Selectivity/JNK3 of 18a, JNK2” value on JNK2 (JNK2 vs JNK3) is >80 fold. Moreover, the inhibition at 10 µM on JNK2 (read-out: enzymatic inhibition of JNK2 in kinase panel screening), at GSK3β (read-out: enzymatic inhibition of GSK3β in kinase panel screening) and at RIPK3 was > 50% throughout. Also, on GSK3β (GSK3β vs JNK3), the “Selectivity/JNK3 of 18a, GSK3β” value is given as >2000 fold.
As to `NC(=O)N1Cc2nc(-c3ccc4ccccc4c3)n(-c3ccnc(N[C@H]4CCN(C(=O)C5CC5)C4)n3)c2C1` [Compound 19b, (S)-1-(2-((1-(Cyclopropanecarbonyl)Pyrrolidin-3-yl)Amino)Pyrimidin-4-yl)-2-(3,4-Dichlorophenyl)-4,6-Dihydropyrrolo[3,4-d]Imidazole-5(1H)-Carboxamide], the IC50 at JNK3 (h) (setting [1]) amounted to 48.2 nM.
In the case of `NC(=O)N1Cc2nc(-c3ccc4ccccc4c3)n(-c3ccnc(N[C@H]4CCCN(C(=O)C5CC5)C4)n3)c2C1` [Compound 17b, (S)-1-(2-((1-(Cyclopropanecarbonyl)piperidin-3-yl)Amino)Pyrimidin-4-yl)-2-(Naphthalen-2-yl)-4,6-Dihydropyrrolo[3,4-d]Imidazole-5(1H)-Carboxamide], the IC50 on JNK3 (h) (setting [1]) stood at 4.81 nM.
